The text below walks through data of article PMC6272548, “Synthesis and Antiplatelet Activity of Antithrombotic Thiourea Compounds: Biological and Structure-Activity Relationship Studies” (Molecules, 2015).

The subject of the assay is human platelets. As to the kind of experiment: Platelet aggregation of human citrated platelet-rich plasma induced by arachidonic acid (turbidimetric). It counts as cell-based. The protocol:
The human blood samples were obtained from adult volunteers, who abstained from the use of drugs or other substances that could interfere with the experiment for at least 15 days prior. […] The platelet rich (PRP) and poor (PPP) plasma were prepared by differential centrifugation and platelet aggregation was monitored using the turbidimetric method described by Born and Cross with an aggregometer 4-Pack® (Helena Laboratories, Beaumount, TX, USA). Different concentrations of the synthetic derivatives and the vehicle (DMSO 1%) were pre-incubated for 2 min before addition of the agonists (500 μM arachidonic acid and 5 μg/mL collagen). The platelet aggregation tests were performed in triplicate and the data were statistically analyzed.

Structures are written as SMILES.

For `CC(=O)Oc1ccccc1C(=O)O` [Aspirin, acetylsalicylic acid, reference compound], where the note is “Platelet, 100 μM, healthy human platelets, read-out: Inhibition of AA-induced platelet aggregation”, the inhibition at 100 µM stood at 97.5%. The IC50 (arachidonic acid-induced (500 μM), human platelet-rich plasma, read-out: IC50, concentration that caused 50% inhibition of platelet aggregation) was 30.6 ± 0.4 µM.

The inhibition is the relative decrease from the control value, in per cent.
